These results are taken from US20240376090A1, “ISOXAZOLE DERIVATIVES AS MODULATORS OF THE 5-HT2A SEROTONIN RECEPTOR USEFUL FOR THE TREATMENT OF DISORDERED RELATED THERETO” (Arena Pharmaceuticals, Inc., priority 2020, published 2024).

Protein sequences, listed by entry. Tags and fused reporters are not part of them.
UniProt P28223, whole entry: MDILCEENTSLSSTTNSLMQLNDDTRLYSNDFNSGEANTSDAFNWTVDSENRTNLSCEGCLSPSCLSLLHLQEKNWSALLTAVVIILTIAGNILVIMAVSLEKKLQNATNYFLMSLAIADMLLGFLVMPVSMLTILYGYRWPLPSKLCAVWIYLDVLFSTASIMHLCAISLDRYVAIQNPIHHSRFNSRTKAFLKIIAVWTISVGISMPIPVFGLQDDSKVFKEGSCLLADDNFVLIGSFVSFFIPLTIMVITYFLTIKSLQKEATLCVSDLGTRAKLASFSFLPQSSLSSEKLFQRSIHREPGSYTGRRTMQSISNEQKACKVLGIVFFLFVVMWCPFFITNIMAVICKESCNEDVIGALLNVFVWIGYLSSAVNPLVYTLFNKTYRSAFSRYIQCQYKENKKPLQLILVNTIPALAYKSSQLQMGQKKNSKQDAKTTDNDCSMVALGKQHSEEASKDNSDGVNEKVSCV

Each structure is given as a SMILES string.

The experiment concerns the target 5-HT2A receptor (Homo sapiens (Human), UniProt P28223). Kind of experiment: Radioligand binding assay ([3H]5-HT competition), 5-HT2A. The following applies: [3H]5-HT radioligand, membranes of HEK293 cells expressing recombinant 5-HT2A; Ki from IC50 by Cheng-Prusoff; read-out: 5-HT2A serotonin binding Ki value. The method, then:
Competition binding experiments consisted of addition of 5 μL of serially diluted test compound, 50 μL of radioligand stock diluted in Assay Buffer (20 mM HEPES, pH 7.4, 10 mM MgCl2), and 145 μL of diluted membrane expressing the receptor of interest to 96-well microtiter plates, which were then incubated for one hour at room temperature. Assay incubations were terminated by rapid filtration through Perkin Elmer GF/C filtration plates under vacuum pressure using a 96-well Packard filtration apparatus, followed by washing the filter plates several times with ice cold Assay Buffer. Plates were then dried at 45° C. for a minimum of four hours. Finally, 25 μL of BetaScint scintillation cocktail was added to each well and the plates were counted in a Packard TopCount scintillation counter. In each competition study, test compounds were assayed at 10 concentrations with three replicates at each test concentration. Dose-response curves were constructed to determine IC50 values and these were converted to corresponding Ki values using the Cheng-Prusoff equation.

`Cc1noc(C)c1-c1cc(NC(=O)C2CC2)ccc1OCCN1CCC1` [Compound 154, N-[4-[2-(azetidin-1-yl)ethoxy]-3-(3,5-dimethylisoxazol-4-yl)phenyl]cyclopropanecarboxamide]: the Ki amounted to 8.12 nM. In the case of `Cc1noc(C)c1-c1cc(NC(=O)C2CC2)ccc1OCCN1CCN2C(=O)OCC2C1` (centres unmarked) [Compound 136, N-[3-(3,5-dimethylisoxazol-4-yl)-4-[2-(3-oxo-5,6,8,8a-tetrahydro-1H-oxazolo[3,4-a]pyrazin-7-yl)ethoxy]phenyl]cyclopropanecarboxamide] it was 84.1 nM.
